We go through three molecules from DBAASP.

For test [1], the system named is Staphylococcus aureus ATCC 12600. The test is described as follows: ≥ marks a high value that may be exact or a test limit, other limits are often not marked, values filed in µg/mL are converted to µM.
Test [2] relates to Escherichia coli K-12. Described as above.

The structures appear in SMILES notation. Values after ≈ are worked out from the molar mass of the structure shown.

As for `CC[C@H](C)[C@H](NC(=O)[C@H](C)NC(=O)CNC(=O)[C@@H](NC(=O)[C@@H](NC(=O)[C@@H](NC(=O)CNC(=O)[C@@H](NC(=O)[C@@H](NC(=O)[C@@H](NC(=O)[C@H](C)NC(=O)[C@H](Cc1ccccc1)NC(=O)[C@H](CC(C)C)NC(=O)[C@H](CCCN=C(N)N)NC(=O)[C@H](CCCN=C(N)N)NC(=O)[C@H](CC(C)C)NC(=O)CNC(=O)CNC(=O)[C@@H](NC(=O)[C@@H](N)Cc1ccccc1)[C@@H](C)CC)[C@@H](C)O)C(C)C)C(C)C)[C@@H](C)O)C(C)C)C(C)C)C(=O)N[C@@H](CC(N)=O)C(=O)N[C@@H](CCCCN)C(=O)N[C@@H](CC(C)C)C(=O)NCC(=O)NCC(=O)NCC(=O)O` [FIGGLRRLFATVVGTVVGAINKLGGG], the MIC was not below 64 µM in test [1] and 4 µM (≈ 10.3 µg/mL) in test [2].

In the case of `CC[C@H](C)[C@H](NC(=O)[C@H](CC(C)C)NC(=O)[C@H](C)NC(=O)[C@@H]1CCCN1C(=O)[C@H](CC(C)C)NC(=O)CNC(=O)[C@@H](NC(=O)[C@@H](NC(=O)[C@H](CC(C)C)NC(=O)[C@@H](NC(=O)[C@H](CCCCN)NC(=O)[C@H](CCCCN)NC(=O)[C@H](C)NC(=O)[C@H](C)NC(=O)[C@H](CO)NC(=O)[C@@H](NC(=O)[C@H](CC(C)C)NC(=O)[C@H](CCCCN)NC(=O)[C@H](CCCCN)NC(=O)[C@@H](NC(=O)[C@H](Cc1ccccc1)NC(=O)[C@H](CCCCN)NC(=O)[C@H](CCCCN)NC(=O)[C@H](Cc1c[nH]c2ccccc12)NC(=O)[C@@H](N)CCCCN)[C@@H](C)CC)[C@@H](C)O)C(C)C)[C@@H](C)O)[C@@H](C)O)C(=O)N[C@@H](CO)C(=O)O` [KWKKFIKKLTSAAKKVLTTGLPALIS], the MIC in test [1] is not below 32 µM; in test [2], 2 µM (≈ 5.74 µg/mL).

The molecule `CC(C)C[C@H](NC(=O)[C@H](Cc1c[nH]c2ccccc12)NC(=O)[C@H](C)NC(=O)CNC(=O)[C@H](Cc1c[nH]c2ccccc12)NC(=O)[C@H](CC(N)=O)NC(=O)[C@@H](N)CC(C)C)C(=O)N[C@@H](CCCCN)C(=O)N[C@@H](Cc1cnc[nH]1)C(=O)N[C@@H](Cc1c[nH]c2ccccc12)C(=O)N[C@@H](Cc1c[nH]c2ccccc12)C(=O)N[C@@H](CCCCN)C(=O)O` [LNWGAWLKHWWK] showed an MIC in test [1] not below 64 µM.

In general, MIC refers to the lowest concentration that inhibits growth of the organism. A high value points to a less susceptible organism.
